Calls of active or inactive are those of the source. The rule behind the calls is not given here.
Target: T1, Proteinase-activated receptor 1 (Homo sapiens) (UniProt P25116)
T1 sequence (whole entry): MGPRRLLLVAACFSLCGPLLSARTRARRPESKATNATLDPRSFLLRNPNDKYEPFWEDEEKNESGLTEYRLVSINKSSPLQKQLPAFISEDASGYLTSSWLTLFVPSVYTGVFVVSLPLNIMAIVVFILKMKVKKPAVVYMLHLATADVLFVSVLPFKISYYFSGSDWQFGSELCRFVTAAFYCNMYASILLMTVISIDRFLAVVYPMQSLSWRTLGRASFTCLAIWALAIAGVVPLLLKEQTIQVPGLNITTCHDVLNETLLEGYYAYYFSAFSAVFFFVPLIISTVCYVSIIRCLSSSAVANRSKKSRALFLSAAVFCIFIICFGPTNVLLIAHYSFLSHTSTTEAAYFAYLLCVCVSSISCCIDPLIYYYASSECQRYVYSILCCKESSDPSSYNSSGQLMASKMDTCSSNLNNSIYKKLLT
Test: Agonist activity at PAR1 in 2f-LIGRLO-NH2-desensitized human PC3 cells assessed as induction of intracellular calcium release at 100 uM compound treated post desensitization by Fluo-3 AM dye based fluorescence assay
Type: functional, cell-based

## CC(C)C[C@H](NC(=O)[C@H](CC(C)C)NC(=O)[C@H](Cc1ccccc1)NC(=O)[C@@H](N)[C@@H](C)O)C(=O)N[C@@H](CCCNC(=N)N)C(N)=O
  Activity: Active
